The target in assay [1] is rHCRTR1 (Rattus norvegicus, UniProt P56718). The assay is described as follows: [^3H]almorexant saturation binding, HEK293-rHCRTR1 membranes. The settings on record: 23°C, tested as the radiolabelled form.
Assay [2] has as its target T1, rHCRTR2 (Rattus norvegicus, UniProt P56719). The assay is described as follows: [^3H]almorexant saturation binding, HEK293-rHCRTR2 membranes. The following applies: 37°C, tested as the radiolabelled form.
The target of assay [3] is T1, rHCRTR2. Description: Association and dissociation kinetics of [^3H]almorexant in rHCRTR2-HEK293 cell membranes. The following applies: tested as the radiolabelled form. The format is binding.

The chains behind the UniProt entries cited, without tags or fusion partners.
UniProt P56718, whole entry: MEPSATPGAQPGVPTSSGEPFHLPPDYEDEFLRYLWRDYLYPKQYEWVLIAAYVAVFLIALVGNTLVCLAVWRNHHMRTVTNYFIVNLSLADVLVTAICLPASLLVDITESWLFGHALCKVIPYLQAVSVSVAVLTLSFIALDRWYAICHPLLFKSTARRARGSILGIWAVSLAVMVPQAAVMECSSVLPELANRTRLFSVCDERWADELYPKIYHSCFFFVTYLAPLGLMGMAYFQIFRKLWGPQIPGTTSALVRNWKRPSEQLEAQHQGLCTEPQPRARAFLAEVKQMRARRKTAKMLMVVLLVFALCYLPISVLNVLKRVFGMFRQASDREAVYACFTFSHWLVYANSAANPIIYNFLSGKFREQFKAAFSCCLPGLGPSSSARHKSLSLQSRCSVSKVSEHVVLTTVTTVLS
UniProt P56719, whole entry: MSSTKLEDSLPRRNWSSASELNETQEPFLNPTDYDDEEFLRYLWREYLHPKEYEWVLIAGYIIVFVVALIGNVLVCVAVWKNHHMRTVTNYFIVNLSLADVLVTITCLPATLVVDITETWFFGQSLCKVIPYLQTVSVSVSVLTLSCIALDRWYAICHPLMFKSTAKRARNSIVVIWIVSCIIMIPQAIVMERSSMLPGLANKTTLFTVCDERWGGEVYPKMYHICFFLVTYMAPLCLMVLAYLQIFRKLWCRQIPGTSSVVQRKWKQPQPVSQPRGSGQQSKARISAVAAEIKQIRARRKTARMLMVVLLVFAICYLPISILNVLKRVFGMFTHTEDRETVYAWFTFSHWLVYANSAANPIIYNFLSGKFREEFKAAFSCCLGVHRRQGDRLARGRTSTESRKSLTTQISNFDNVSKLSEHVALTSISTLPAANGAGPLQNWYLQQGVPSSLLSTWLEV

Bounds are passed on as bounds.

In assay [1], `CNC(=O)[C@@H](c1ccccc1)N1CCc2cc(OC)c(OC)cc2[C@@H]1CCc1ccc(C(F)(F)F)cc1` [almorexant, (2R)-2-[(1S)-6,7-Dimethoxy-1-[2-(4-trifluoromethyl-phenyl)-ethyl]-3,4-dihydro-1H-isoquinolin-2-yl]-N-methyl-2-phenyl-acetamide] registered a Bmax of 27.2±0.7 pmol/mg prot and a Kd of 3.4 nM. In assay [2], this molecule had a Bmax of 53.0±1.4 pmol/mg prot and a Kd of 0.5 nM. Moreover, in assay [3] (37°C, calculated on rate), the “Association kinetic Kon” value was 1.22e+06 ± 250000 M⁻¹ s⁻¹. For the same molecule, the “Dissociation kinetic Koff” value in assay [3] (37°C, observed off rate, excess almorexant 5 µM) stood at 0.00035 ± 6.7e-05 s⁻¹. Besides, in assay [3] (37°C), the “half-maximal binding (association)” value is on record as 10 min and the “time to reach binding equilibrium” value is at most 50 min. For the same molecule, in assay [3] (read-out: Apparent Kd, 37°C, apparent dissociation constant from kinetics), the Kd was 0.33 nM. The “rate of dissociation (in words)” value in assay [3] (reversal incomplete, baseline not reached even after 2 h) is given as “slow”.

These data come from PMC3388080 (PLoS ONE, 2012).
